The numbers were not newly measured in US20040063658A1, “Nucleoside derivatives for treating hepatitis C virus infection” (priority 2002, published 2004), which cites them from elsewhere.

For this data set the following is noted: in vivo.

As for `NC(=O)c1ncn([C@@H]2O[C@H](CO)[C@@H](O)[C@H]2O)n1` [Ribavirin, 1-β-D-ribofuranosyl-1H-1,2,-4-triazole-3-carboxamide], the teratogenicity / embryotoxicity result is “teratogenic and embryotoxic”.
